Measured values as given in patent publication US20060079453A1, “Hla binding peptides and their uses” (priority 2002, published 2006).
pIC50: −log10 of the molar value.

Legend:
Assay in all cases: biochemical
Type in all cases: binding
HLA-B*4402 = HLA-B*4402 (Homo sapiens, UniProt P01889, A223V/A65T/A93T/A95T/D201E/D98Y/E176V/E187L/E204Q/E69K/G107R/H137Y/K202T/L105A/L119I/N104T/N87E/Q56L/Q94N/R106L/R155S/R180D/S101N/S121R/S35A/S48T/T118I/V36M/W191S/Y140D/Y91S); conditions: B*4402
HLA-B*4403 = HLA-B*4403 (Homo sapiens, UniProt P01889, A223V/A65T/A93T/A95T/D201E/D98Y/E176V/E187L/E204Q/E69K/G107R/H137Y/K202T/L105A/L119I/N104T/N87E/Q56L/Q94N/R106L/R155S/R180L/S101N/S121R/S35A/S48T/T118I/V36M/W191S/Y140D/Y91S); conditions: B*4403
HLA-B*4001 = HLA-B*4001 (Homo sapiens, UniProt P01889, A65T/A93T/A95T/D138N/D98Y/E176V/E69K/N87E/Q56L/Q94N/R180L/S121R/S35A/S48T/T167S/V36M/W171L/Y33H/Y91S); conditions: B*4001
HLA-B*4002 = HLA-B*4002 (Homo sapiens, UniProt P01889, A65T/A93T/A95T/D138N/D201E/D98Y/E176V/E204Q/E69K/K202T/N87E/Q56L/Q94N/R180L/S48T/Y33H/Y91S); conditions: B*4002
HLA-B*4501 = HLA-B*4501 (Homo sapiens, UniProt P01889, A329T/A65T/A93T/A95T/C349S/D138N/D201E/D98Y/E176V/E187L/E204Q/E69K/H137Y/K202T/L119W/N87E/Q56L/Q94N/R155S/R180D/S121R/S35A/S48T/V127L/V306I/V36M/W191S/Y140L/Y33H/Y91S); conditions: B*4501
HLA-B*1801 = HLA-B*1801 (Homo sapiens, UniProt P01889, A329T/A93T/A95T/C349S/D201E/D54G/D98Y/E176V/E187T/E204Q/E69T/K202T/Q94N/R155S/R180L/S121R/V306I/Y140S/Y195H/Y33H/Y91S); conditions: B*1801

Structure (SMILES)	pIC50 (HLA-B*4402)	pIC50 (HLA-B*4403)	pIC50 (HLA-B*4001)	pIC50 (HLA-B*4002)	pIC50 (HLA-B*4501)	pIC50 (HLA-B*1801)
CC(C)C[C@H](NC(=O)[C@H](Cc1ccc(O)cc1)NC(=O)[C@H](CCC(=O)O)NC(=O)[C@H](CCC(=O)O)NC(=O)[C@H](C)N)C(=O)N[C@H](C(=O)N1CCC[C@H]1C(=O)N[C@@H](CCC(N)=O)C(=O)N[C@@H](CCC(N)=O)C(=O)NCC(=O)N[C@@H](Cc1ccccc1)C(=O)N[C@@H](Cc1ccccc1)C(=O)O)C(C)C	7.80	7.89	6.64	7.35	–	–
CC(C)C[C@H](NC(=O)[C@H](CC(C)C)NC(=O)[C@H](CC(C)C)NC(=O)[C@@H](NC(=O)[C@H](CCC(=O)O)NC(=O)[C@H](CCCCN)NC(=O)CNC(=O)[C@H](CCC(=O)O)NC(=O)[C@H](C)N)C(C)C)C(=O)O	–	8.77	7.14	–	6.70	–
C[C@H](NC(=O)[C@H](CCC(=O)O)NC(=O)[C@@H]1CCCN1C(=O)[C@H](CCC(=O)O)NC(=O)[C@@H](N)CS)C(=O)N[C@@H](CCC(N)=O)C(=O)N[C@@H](CC(N)=O)C(=O)N[C@H](C(=O)N[C@H](C(=O)N[C@@H](Cc1ccc(O)cc1)C(=O)O)[C@@H](C)O)[C@@H](C)O	–	< 5.37	< 4.89	< 4.31	–	–
CC[C@H](C)[C@H](NC(=O)[C@H](Cc1ccc(O)cc1)NC(=O)[C@H](CC(C)C)NC(=O)[C@H](Cc1ccc(O)cc1)NC(=O)CNC(=O)[C@@H](NC(=O)[C@@H](NC(=O)[C@H](CCC(=O)O)NC(=O)[C@@H](N)CCC(=O)O)[C@@H](C)CC)[C@@H](C)O)C(=O)N[C@@H](CO)C(=O)N[C@@H](C)C(=O)N[C@@H](Cc1c[nH]c2ccccc12)C(=O)O	6.60	5.83	6.32	5.74	–	6.13
CC[C@H](C)[C@H](NC(=O)[C@H](CCCCN)NC(=O)[C@H](CCC(=O)O)NC(=O)[C@@H](N)CCC(=O)O)C(=O)N[C@@H](Cc1c[nH]c2ccccc12)C(=O)N[C@@H](CCC(=O)O)C(=O)N[C@@H](CCC(=O)O)C(=O)N[C@@H](CC(C)C)C(=O)N[C@@H](CO)C(=O)N[C@@H](CCSC)C(=O)O	–	7.72	4.67	–	–	7.77
CC[C@H](C)[C@H](NC(=O)[C@H](CCCCN)NC(=O)[C@@H](NC(=O)[C@H](CC(N)=O)NC(=O)[C@H](CCC(=O)O)NC(=O)CN)C(C)C)C(=O)N1CCC[C@H]1C(=O)N[C@H](C(=O)N[C@@H](C)C(=O)O)C(C)C	4.69	8.57	4.84	8.12	8.15	–
CC[C@H](C)[C@H](N)C(=O)N[C@@H](CCC(=O)O)C(=O)N[C@@H](CC(C)C)C(=O)N[C@@H](CCSC)C(=O)N[C@@H](CCC(=O)O)C(=O)N[C@H](C(=O)N[C@@H](CC(=O)O)C(=O)N1CCC[C@H]1C(=O)N[C@H](C(=O)NCC(=O)O)[C@@H](C)CC)C(C)C	–	< 4.79	–	–	–	6.71
CC[C@H](C)[C@H](NC(=O)[C@H](CCC(=O)O)NC(=O)[C@@H](N)CCCCN)C(=O)N[C@@H](CC(C)C)C(=O)N[C@@H](CC(=O)O)C(=O)N[C@@H](CCC(=O)O)C(=O)N[C@@H](C)C(=O)N[C@@H](Cc1ccc(O)cc1)C(=O)N[C@H](C(=O)N[C@@H](CCSC)C(=O)O)C(C)C	–	8.12	8.00	–	–	9.85
CC(C)C[C@H](NC(=O)CNC(=O)[C@H](CC(C)C)NC(=O)[C@H](C)NC(=O)[C@H](CCC(=O)O)NC(=O)CNC(=O)[C@H](CCCNC(=N)N)NC(=O)[C@H](C)NC(=O)[C@H](CCC(=O)O)NC(=O)[C@@H](N)CC(C)C)C(=O)N[C@H](C(=O)NCC(=O)N[C@@H](C)C(=O)O)C(C)C	5.59	8.66	7.70	–	–	6.46
CC(C)C[C@H](NC(=O)[C@@H](NC(=O)[C@H](CO)NC(=O)[C@H](CCC(=O)O)NC(=O)[C@@H](N)CC(C)C)C(C)C)C(=O)N[C@@H](CCCNC(=N)N)C(=O)N[C@@H](CC(N)=O)C(=O)N[C@@H](CS)C(=O)N[C@@H](CCC(N)=O)C(=O)N[C@@H](CC(=O)O)C(=O)N[C@@H](Cc1ccccc1)C(=O)N[C@@H](Cc1ccccc1)C(=O)O	6.74	7.62	7.26	–	5.70	–
